## Binding of CDR-mutated scFvs to a peptide of the spike HR2 region

Antigen: PDVDLGDISGINAS, a 14-residue peptide of the SARS-CoV-2 spike HR2 region.

The variants keep the heavy chain, the linker and the frameworks of Ab-14 (scFv order VH, a (GGGGS)3 linker, VL).
VH: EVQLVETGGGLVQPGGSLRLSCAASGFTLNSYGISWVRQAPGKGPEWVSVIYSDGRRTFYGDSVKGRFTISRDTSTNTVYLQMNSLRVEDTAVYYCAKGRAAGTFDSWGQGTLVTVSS
VL: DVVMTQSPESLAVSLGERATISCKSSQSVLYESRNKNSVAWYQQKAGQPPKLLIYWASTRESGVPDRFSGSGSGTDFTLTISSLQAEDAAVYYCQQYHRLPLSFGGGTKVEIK

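These sequences belong to a second round, designed from the earlier measurements on random variants of the parent. Their group label is 14L_GP_HC (GP: Gaussian process model; HC: hill climbing; a sequence that several methods proposed may carry one label only). In AlphaSeq, yeast of one mating type display the scFv and yeast of the other type display the target. Pairs that bind mate more often; barcode pairs of the diploids are counted by sequencing. Scores were corrected for input abundance and mapped to Kd with protein pairs of known affinity run in the same pool. Mating was done six times.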

The parent's light chain CDRs are KSSQSVLYESRNKNSVA, WASTRES, QQYHRLPLS; each variant's own CDRs replace them letter for letter.
The read-out is the apparent dissociation constant on a log10 scale (nM): the lower, the stronger.
The mean shown is taken over the replicates in which the pair was detected.
"nd" means that the variant was in the library but no mating with the target was seen in that replicate; the authors take this as a sign of poor binding, and no number exists.
The range of this assay differs from that of the first round, and the authors advise against merging the two.

With KVSISYLLESRNKNSVA / SASTRES / QQYHRLPLS the result was 1.19, 1.13, 0.88, 0.82, 0.31, 1.28 (mean 0.94; controls 0 of 18).
With KSSQSFLYESRAKNSVA / GASQRES / QQYHRLPLS the result was 0.23, 0.11, -0.04, 0.05, 0.06, 0.28 (mean 0.12; controls 5 of 18).
With KWEQGVLYESRNKNSVA / GASVRES / QQYHRLPLS the result was 0.07, -0.14, -0.17, -0.11, 0.18, -0.24 (mean -0.07; controls 0 of 18).
With KLPQQTLYESRNKNSVA / WASTREE / QQYHRLPLS the result was 0.96, 0.62, 0.84, 0.98, 0.56, 0.89 (mean 0.81; controls 0 of 18).
With KSSGVVLYESHNKNSVA / NASTRMS / QQYHRLPLS the result was 0.81, 0.70, 0.64, 0.42, 0.48, 0.74 (mean 0.63; controls 2 of 18).
With KSSISFLIESRNKNSVA / EASTRES / QQYHRLPLS the result was -0.01, 0.13, -0.34, 0.04, -0.18, -0.10 (mean -0.08; controls 0 of 18).
With KQSEEKLYESRNKNSVA / DASTRES / QQYHRLPLS the result was 0.09, -0.07, -0.06, -0.21, -0.03, 0.05 (mean -0.04; controls 1 of 18).
With HVSQSELYESRNKNSVA / NASTRES / QQYHRLPLS the result was 0.11, -0.17, -0.22, -0.28, -0.30, -0.01 (mean -0.14; controls 1 of 18).
With KVSQSVDFESRNKNSVA / DASTRES / QQYHRLPLS the result was 0.21, -0.05, 0.04, -0.05, -0.01, 0.23 (mean 0.06; controls 2 of 18).
With KISQSWLMESRNKNSVA / EASTRQS / QQYHRLPLS the result was -0.09, -0.17, -0.18, -0.48, 0.16, -0.06 (mean -0.14; controls 1 of 18).
With KVSQSWLPESRNKNSVA / EASTRQS / QQYHRLPLS the result was 0.52, 0.11, 0.38, 0.03, 0.06, 0.10 (mean 0.20; controls 1 of 18).
With KSSQSYAYESRNKNSVA / GASTRES / QQYHRLPLS the result was 0.27, -0.20, 0.18, -0.04, 0.65, 0.07 (mean 0.16; controls 0 of 18).
With KSSWSQLYESRNKNSVA / DASTRES / QQYHRLPLS the result was -0.23, -0.35, -0.42, -0.42, -0.47, -0.13 (mean -0.34; controls 0 of 18).
With KLSQSFLYEDRVKNSVA / GASTRES / QQYHRLPLS the result was 0.19, -0.10, -0.02, -0.12, -0.08, 0.18 (mean 0.01; controls 1 of 18).
With KESQSWIYESRNKNSVA / EASTRES / QQYHRLPLS the result was 0.20, 0.07, 0.11, -0.04, 0.07, 0.13 (mean 0.09; controls 1 of 18).
With KFSQSFLYESRNVNSVA / GASTRES / QQYHRLPLS the result was 0.10, -0.11, -0.04, -0.15, -0.09, -0.08 (mean -0.06; controls 1 of 18).
With KMSQSWLYESRNKNSVA / GASFRES / QQYHRLPLS the result was -0.33, -0.43, -0.46, -0.45, -0.20, -0.11 (mean -0.33; controls 1 of 18).
With HQSWSVLYESRNKNSVA / NGSTREV / QQYHRLPLS the result was 0.14, -0.22, -0.13, -0.30, -0.22, -0.12 (mean -0.14; controls 1 of 18).
With KSSYSYLYESRNTNSVA / EASTRES / QQYHRLPLS the result was 0.60, 0.23, 0.22, 0.17, 0.11, 0.40 (mean 0.29; controls 2 of 18).
With KLVNSTLYESRQKNSVA / WASTREV / QQYHRLPLS the result was 1.84, 2.37, 1.76, 1.64, 2.38, 2.22 (mean 2.04; controls 0 of 18).
With KSLQSQEYESRNKNSVA / HASTRED / QQYHVLPLS the result was -0.03, -0.24, -0.25, -0.26, -0.44, 0.01 (mean -0.20; controls 0 of 18).
With KSLWSVLYESRNKNSVA / HASTRED / QQYHRLPLS the result was nd, nd, nd, nd, nd, nd (controls 0 of 18).
With KMEQGVLYESRNKNSVA / GASMRES / QQYHRLPLS the result was 0.23, 0.11, 0.16, 0.05, 0.08, 0.35 (mean 0.16; controls 1 of 18).
With KSSPSFLYESRNKNSVA / EASTRES / QQYHRLPLS the result was 0.12, 0.19, 0.07, -0.07, 0.12, 0.10 (mean 0.09; controls 1 of 18).
With KQSQSVLYESRNKNSVA / NASTRES / QQYQRLPLS the result was 0.14, 0.31, -0.08, -0.16, 0.10, 0.15 (mean 0.08; controls 2 of 18).
With KISQAFLYESRNKNSVA / DANTRES / QQYHRLPLS the result was -0.24, -0.18, -0.07, -0.31, -0.37, -0.11 (mean -0.21; controls 1 of 18).
With KDSWSVLFESRNKNSVA / DASTRSS / QQYHRLPLS the result was 0.27, 0.20, 0.09, -0.02, 0.06, 0.19 (mean 0.13; controls 0 of 18).
With KSSYSYLYESENKMSVA / EASQRES / QQYHRLPLS the result was 1.67, 1.57, 1.69, 2.31, 0.80, 1.02 (mean 1.51; controls 0 of 18).
With KSPQSVLYESRNKNSVA / HASTRED / QQYGRLPLS the result was 0.38, 0.05, 0.16, 0.04, -0.06, -0.03 (mean 0.09; controls 3 of 18).
With KGSQSWLYESRNKNSVA / GGSTRES / QQYHRLPLS the result was -0.38, -0.51, -0.54, -0.69, -0.62, -0.48 (mean -0.54; controls 1 of 18).
With KMSQSVLMENRNKNSVA / DASLRES / QQYHRLPLS the result was 0.18, -0.15, -0.26, -0.56, -0.02, -0.04 (mean -0.14; controls 0 of 18).
With HSSPSYAYESRNKNSVA / NASTRES / QQYHRLPLS the result was 0.65, 1.58, 0.95, 0.02, 0.23, 0.52 (mean 0.66; controls 0 of 18).
With KQSQSVLYESRNKNAVA / NASTRES / QQYHRLPLS the result was 0.58, 0.54, 0.88, 0.40, 0.36, 0.62 (mean 0.56; controls 0 of 18).
With KSSQSVKIESRNKNSVA / DASTRES / QQYHRLPLS the result was 0.32, 0.30, -0.01, 0.30, 0.12, 0.64 (mean 0.28; controls 1 of 18).
With KFSQWVLYESRTKNSVA / NASTRES / QQYERLPLS the result was 0.07, 0.05, -0.06, 0.02, 0.04, 0.28 (mean 0.07; controls 1 of 18).
With KYQQSVLYESRNKNNVA / HASTRED / QQYHRLPLS the result was 0.75, 0.17, 0.76, -0.17, 0.51, 0.56 (mean 0.43; controls 0 of 18).
With KSQCGVLYESRNKNSVA / GASTRES / QQYHRLPLS the result was 0.32, 0.47, 0.13, 0.01, 0.18, 0.37 (mean 0.25; controls 1 of 18).

The 2 strongest on average among those seen in every replicate, once more:

| CDR-L1 | CDR-L2 | CDR-L3 | log10 Kd (nM) by replicate | log10 Kd (nM), mean | empty controls |
|---|---|---|---|---|---|
| KGSQSWLYESRNKNSVA | GGSTRES | QQYHRLPLS | -0.38, -0.51, -0.54, -0.69, -0.62, -0.48 | -0.54 | 1 of 18 |
| KSSWSQLYESRNKNSVA | DASTRES | QQYHRLPLS | -0.23, -0.35, -0.42, -0.42, -0.47, -0.13 | -0.34 | 0 of 18 |

The authors' rule: three or more of the six replicates give a measured affinity, fewer mean a poor binder.
Nonspecific signal, from three strains lacking the peptide, appeared in 4% of pairings of all light chain designs, centred on 2.64 (5% of these signals below 1.59); values are not corrected for it. For each scFv, signals with the empty controls are counted beside the result.

The measurements come from Li et al. 2023 (doi:10.1038/s41467-023-39022-2) through the FLAb antibody collection.